According to patent publication US10239856B2:

Key:
[1] = biological target: HSP90α (Homo sapiens, UniProt P07900); test: Affinity to HSP90α; format: binding; settings: read-out: HSP90 affinity
[2] = system: Her-2 (HSP90 client); test: Her-2 (HSP90 client) degradation (client depletion); format: cell-based; settings: read-out: Client Depletion; Her-2 degradation

CCN(CC)C(=O)CO/N=C1/C=C/CC/C=C/C[C@@H](C)OC(=O)c2c(O)cc(O)cc2C1
IC50 [1]: 0.543 µM | IC50 [2]: 2.96 µM

CCCC1C/C=C/CCCCC(=NOCC(=O)N2CCCCC2)Cc2c(Cl)c(O)cc(O)c2C(=O)O1 (stereo not drawn)
IC50 [1]: 0.543 µM | IC50 [2]: 4.27 µM

CCN(CC)C(=O)CO/N=C1\C=C\CC/C=C/C[C@@H](C)OC(=O)c2c(O)cc(O)cc2C1
IC50 [1]: 0.601 µM | IC50 [2]: 4.11 µM
